This is an account of results in patent US6670370B1 (priority 2001, dated 2003).

This data set can be described thus: Solubility in water (descriptive). The following applies: physical properties stated in detailed description.

“dextromethorphan tannate [D-M Tannate of the invention]”: the solubility in water entry is given as “slightly soluble”.
